Assay results reported in patent publication US9346803B2 (Vanderbilt University, priority 2011, dated 2016).

Amino acid sequences for entries named in this document (tags omitted). A change or cut given only in a name is not applied to a line headed by its entry.
UniProt Q04828: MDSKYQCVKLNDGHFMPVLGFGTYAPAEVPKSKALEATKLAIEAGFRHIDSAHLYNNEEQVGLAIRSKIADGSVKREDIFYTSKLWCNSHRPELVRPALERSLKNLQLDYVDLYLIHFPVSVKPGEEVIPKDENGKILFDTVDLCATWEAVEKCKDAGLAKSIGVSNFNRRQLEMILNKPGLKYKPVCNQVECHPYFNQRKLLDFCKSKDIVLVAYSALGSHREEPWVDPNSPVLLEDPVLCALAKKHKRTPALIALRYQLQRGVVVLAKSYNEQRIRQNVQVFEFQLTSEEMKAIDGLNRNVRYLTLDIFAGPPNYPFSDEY
UniProt P52895: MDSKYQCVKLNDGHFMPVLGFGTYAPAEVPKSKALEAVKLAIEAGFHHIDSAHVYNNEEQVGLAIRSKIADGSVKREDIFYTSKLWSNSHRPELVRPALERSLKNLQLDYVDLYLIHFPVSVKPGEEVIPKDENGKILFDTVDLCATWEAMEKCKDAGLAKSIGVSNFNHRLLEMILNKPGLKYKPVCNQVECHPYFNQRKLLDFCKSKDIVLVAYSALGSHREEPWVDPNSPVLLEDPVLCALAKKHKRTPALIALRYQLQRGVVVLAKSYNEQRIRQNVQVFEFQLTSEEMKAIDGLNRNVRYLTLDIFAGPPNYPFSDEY
UniProt P42330: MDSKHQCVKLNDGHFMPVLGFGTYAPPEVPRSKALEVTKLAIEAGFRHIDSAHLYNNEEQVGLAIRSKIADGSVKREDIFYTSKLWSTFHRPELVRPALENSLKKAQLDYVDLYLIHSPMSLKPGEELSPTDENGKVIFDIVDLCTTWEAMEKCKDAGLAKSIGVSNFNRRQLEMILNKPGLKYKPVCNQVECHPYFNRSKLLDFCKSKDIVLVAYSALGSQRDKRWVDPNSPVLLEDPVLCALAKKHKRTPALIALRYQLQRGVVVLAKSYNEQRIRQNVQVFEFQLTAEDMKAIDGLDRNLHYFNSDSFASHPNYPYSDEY
UniProt P17516: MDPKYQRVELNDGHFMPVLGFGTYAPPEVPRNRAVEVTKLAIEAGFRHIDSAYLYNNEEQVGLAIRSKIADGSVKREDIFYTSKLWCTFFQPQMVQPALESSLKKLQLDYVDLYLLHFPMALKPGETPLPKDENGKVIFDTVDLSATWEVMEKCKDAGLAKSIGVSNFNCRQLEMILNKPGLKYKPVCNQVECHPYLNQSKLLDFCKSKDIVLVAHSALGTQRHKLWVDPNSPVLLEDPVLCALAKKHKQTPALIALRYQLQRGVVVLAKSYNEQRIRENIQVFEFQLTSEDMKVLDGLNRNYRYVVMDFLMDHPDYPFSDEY

What was measured:
Format in all cases: biochemical
AKR1C1 = AKR1C1 (Homo sapiens (Human), UniProt Q04828); test: Inhibition of S-tetralol oxidation, AKR1C1; conditions: for fold selectivity for AKR1C3 over AKR1C1: number in parenthesis
Source text: Inhibitors were initially screened for an ability to block the NADP+ dependent oxidation of the artificial substrate S-tetralol catalyzed by AKR1C3. S-tetralol was used since it is also a substrate of the highly related AKR1C1 and AKR1C2 enzymes.
Initially, the ratios of IC50 values for AKR1C2 versus AKR1C3 were compared. High ratios were indicative of high selectivity for AKR1C3.
The latter assay is used to determine whether lead compounds act as AR agonists or block 5α-DHT reporter gene activity by acting as androgen receptor antagonists.

AKR1C2 = AKR1C2 (Homo sapiens (Human), UniProt P52895); test: Inhibition of S-tetralol oxidation, AKR1C2; conditions: for fold selectivity for AKR1C3 over AKR1C2: number in parenthesis, ratio of IC50 values; for IC50: S-tetralol substrate at Km
[1] = molecular target: homogeneous recombinant AKR1C3 (Homo sapiens (Human), UniProt P42330); test: Inhibition of NADP+ dependent oxidation of S-tetralol catalyzed by AKR1C3; conditions: S-tetralol substrate at Km
AKR1C4 = AKR1C4 (Homo sapiens (Human), UniProt P17516); test: Inhibition of S-tetralol oxidation, AKR1C4; conditions: for fold selectivity for AKR1C3 over AKR1C4: number in parenthesis

SMILES | fold selectivity for AKR1C3 over AKR1C1 (AKR1C1) [fold] | fold selectivity for AKR1C3 over AKR1C2 (AKR1C2) [fold] | IC50 [1] [µM] | fold selectivity for AKR1C3 over AKR1C4 (AKR1C4) [fold] | IC50 (AKR1C1; S-tetralol substrate at Km) [µM] | IC50 (AKR1C2) [µM] | IC50 (AKR1C4; S-tetralol substrate at Km) [µM]
COc1ccc2c(c1)c(CC(=O)O)c(C)n2C(=O)c1ccc(C(F)(F)F)cc1 | > 370 | 134 | 0.27 | > 370 | – | – | –
COc1ccc2c(c1)c1c(n2C(=O)c2ccc(Cl)cc2)CCC(C(=O)O)C1 (stereo not drawn) | 477 | 331 | 0.16 | 20 | 76.2 | 53.5 | –
COc1ccc2c(c1)c(CC(=O)O)c(C)n2C(=O)c1ccc(C)cc1 | > 625 | 336 | – | > 625 | – | 54.5 | –

Other lines, results leading:

fold selectivity for AKR1C3 over AKR1C1 (AKR1C1) [fold] | fold selectivity for AKR1C3 over AKR1C2 (AKR1C2) [fold] | IC50 [1] [µM] | fold selectivity for AKR1C3 over AKR1C4 (AKR1C4) [fold] | IC50 (AKR1C1; S-tetralol substrate at Km) [µM] | IC50 (AKR1C2) [µM] | IC50 (AKR1C4; S-tetralol substrate at Km) [µM] | SMILES
– | – | – | – | – | 57 | – | COc1ccc2c(c1)c(CCC(=O)O)c(C)n2C(=O)c1ccc(Cl)cc1
– | – | 0.96 | – | – | 100 | – | COc1ccc2c(c1)c(CC(=O)O)cn2C(=O)c1ccc(Cl)cc1
– | – | 0.21 | – | – | 50.1 | – | COc1ccc2c(c1)c(CC(=O)NS(=O)(=O)C(F)(F)F)cn2C(=O)c1ccc(Cl)cc1 [drawing 36]
– | 111 | – | – | – | – | – | COc1ccc2c(c1)c(C)c(CCC(=O)O)n2C(=O)c1ccc(Cl)cc1 [Compound 2]
136 | – | 0.13 | 27 | – | – | 3.51 | COc1ccc2c(c1)c(C)c(CCC(=O)O)n2C(=O)c1ccc(Cl)cc1 [drawing 37]
